# Measured water solubility values of organic chemicals

Data: OPERA 2.9 data sets, kmansouri/OPERA on GitHub.

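These are experimental values that the OPERA curators gathered from public databases to train and test their QSAR models. A listed value is a point estimate from one report or more. Method, purity and exact conditions of the single measurements are not given. Where a salt, mixture or single isomer is drawn, the source does not say that exactly this form was tested. Some entries may be limits or estimates that an upstream database listed as plain numbers.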

Water solubility is log10 of mol/L, nominally at 25 °C; higher is more soluble. "–" marks a cell with nothing listed here.

SMILES,name,water solubility (log10 mol/L)
CC1CCC2(C(=O)OC3OC(COC4OC(CO)C(OC5OC(C)C(O)C(O)C5O)C(O)C4O)C(O)C(O)C3O)CCC3(C)C(=CCC4C5(C)CC(O)C(O)C(C)(CO)C5CCC43C)C2C1C (stereo not given),–,-3.986
CNC(=O)Nc1ccc(Cl)c(Cl)c1,"N-(3,4-Dichlorophenyl)-N'-methylurea",-3.31
c1cc2ccc1CCc1ccc(cc1)CC2,–,-5.169
Cc1no[n+]([O-])c1C,Dimethylfurazan monoxide,-0.535
CCCCCCCC[Si](OC)(OC)OC,Trimethoxycaprylylsilane,-4.246
CCCCNC(=O)NS(=O)(=O)c1ccc(C)cc1,Tolbutamide,-3.425
COC(=O)c1ccc2c(c1)C(C)(C)C(=CC=C1C(=O)N(c3ccccc3)N=C1C)N2C,–,-5.975
Cc1cc(=O)oc2cc(OCC(=O)[O-])c(O)cc12.[Na+],Sodium methylesculetin acetate,-1.187
CCOc1cc(NC(=O)c2ccccc2)c(OCC)cc1N,"Benzamide, N-(4-amino-2,5-diethoxyphenyl)-",-2.406
CC(C)(C)C(=O)OCn1cnc2c(cnn2COC(=O)C(C)(C)C)c1=O,–,-4.261
N[C@@H](CCS)C(=O)O,Homocysteine,0.039
COC(=O)c1ccc(C(=O)OC)c(C(=O)OC)c1,"Trimethyl benzene-1,2,4-tricarboxylate",-2.356
CCCCC(CC)COC(=O)CCS (stereo not given),"Propanoic acid, 3-mercapto-, 2-ethylhexyl ester",-3.583
CCC(c1ccc(O)cc1)C(CC)c1ccc(O)cc1 (stereo not given),"4,4'-(Hexane-3,4-diyl)diphenol",-4.43
CC(C)C(=O)Nc1ccc([N+](=O)[O-])c(C(F)(F)F)c1,Flutamide,-4.688
CCOC(=O)/C(=C\c1ccccc1Cl)N=CO,Ethyl 2-formamido (2-chlorophenyl) acrylate,-2.999
CC(O)COC(C)(C)C (stereo not given),1-tert-Butoxy-2-propanol,0.498
CCc1cn([C@H]2C[C@H](OC(=O)c3ccc(Cl)cc3)[C@@H](COC(=O)c3ccc(Cl)cc3)O2)c(=O)[nH]c1=O,"3',5'-Bis-O-(4-chlorobenzoyl)-2'-deoxy-5-ethyluridine",-6.551
N[C@@H](CCC(=O)N[C@@H](CS)C(=O)NCC(=O)O)C(=O)O,Glutathione,-0.021
Nc1nc(N)c(N=O)c(N)n1,"2,4,6-Pyrimidinetriamine, 5-nitroso-",-3.845
Clc1cc(Cl)c(Oc2cc(Cl)c(Cl)cc2Cl)cc1Cl,"2,2',4,4',5,5'-Hexachlorodiphenyl ether",-8.36
COc1cc([N+](=O)[O-])ccc1N=Nc1ccc(N(CCO)CCO)cc1,–,-4.699
CCCC(C(C)=O)C(C)=O,"3-Propylpentane-2,4-dione",-0.88
CC(C)(c1ccc(OS(=O)(=O)c2ccccc2/N=N/c2c(N)ccc3cc(S(=O)(=O)[O-])cc(O)c23)cc1)c1ccc(OS(=O)(=O)c2ccccc2/N=N/c2c(N)ccc3cc(S(=O)(=O)[O-])cc(O)c23)cc1.[Na+].[Na+],–,-2.955
CCCCNC(=S)NCCCC,"N,N'-Dibutylthiourea",-2.949
O=C(O)C(CCBr)(c1ccccc1)c1ccccc1,"4-Bromo-2,2-diphenylbutyric acid",-4.069
N=C1C=CC(=Nc2ccccc2)C=C1,"N-Phenyl-2,5-cyclohexadiene-1,4-diimine",-1.738
COc1ccc(NC(=O)CC(C)=O)cc1,N-(4-Methoxyphenyl)-3-oxobutanamide,-1.901
CCCCOc1ccc(C2CCC(CCC)CC2)c(F)c1F (stereo not given),"1-Butoxy-2,3-difluoro-4-(4-propylcyclohexyl)benzene",-6.811
Cc1cc(/N=N/c2c(O)ccc3ccccc23)c(S(=O)(=O)[O-])cc1Cl.Cc1cc(/N=N/c2c(O)ccc3ccccc23)c(S(=O)(=O)[O-])cc1Cl.[Sr+2],–,-7.623

Excerpt, the opening 4 entries:

SMILES	name	water solubility (log10 mol/L)
CC1CCC2(C(=O)OC3OC(COC4OC(CO)C(OC5OC(C)C(O)C(O)C5O)C(O)C4O)C(O)C(O)C3O)CCC3(C)C(=CCC4C5(C)CC(O)C(O)C(C)(CO)C5CCC43C)C2C1C (stereo not given)	–	-3.986
CNC(=O)Nc1ccc(Cl)c(Cl)c1	N-(3,4-Dichlorophenyl)-N'-methylurea	-3.31
c1cc2ccc1CCc1ccc(cc1)CC2	–	-5.169
Cc1no[n+]([O-])c1C	Dimethylfurazan monoxide	-0.535